Among the data in PubChem BioAssay (NCI) are growth values, retold here.

Among the test systems are NCI-H23 lung; NCI-H226 lung; NCI-H322M lung; HOP-62 NSCLC; NCI-H460 lung; HOP-92 NSCLC; NCI-H522 lung; A549/ATCC NSCLC; 786-0 renal; COLO 205 colon; DU-145 prostate; K-562 leukemia; MALME-3M melanoma; MDA-MB-231 breast; RXF 393 renal; SF-268 CNS; SF-539 CNS; UACC-257 melanoma; M14 melanoma; SF-295 CNS.
Common to all, as to test: NCI-60 one-dose screen, 48 h (100 = growth as untreated, 0 = no growth, -100 = all killed)
What all share (conditions): 10 µM

Only a part is listed here, and it is no random draw.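 Method: cells in 96-well plates; compound added at one concentration; 48 h incubation; percent growth measured; values under 10 scored active.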 Activity calls are given as the source filed them.

Regarding `Cc1ccc(C(=O)N(CCCl)CCCl)cc1`, the growth with NCI-H23 lung was inactive: 113%; in the assay on NCI-H226 lung it was inactive: 96.2%; in the assay with NCI-H322M lung it was inactive: 101%; in the assay on HOP-62 NSCLC, inactive: 114%; in the assay with NCI-H460 lung it was inactive: 99.7%; in the assay with HOP-92 NSCLC, inactive: 99.8%. Further, the growth in the assay on NCI-H522 lung was inactive: 84.5%; in the assay on A549/ATCC NSCLC, inactive: 95%; in the assay with 786-0 renal it was inactive: 102%; with COLO 205 colon, inactive: 115%; with DU-145 prostate, inactive: 110%; in the assay with K-562 leukemia it was inactive: 117%. The growth was inactive: 95.2% with MALME-3M melanoma; inactive: 102% with MDA-MB-231 breast; inactive: 94.1% in the assay on RXF 393 renal; inactive: 110% in the assay with SF-268 CNS; inactive: 104% in the assay on SF-539 CNS; inactive: 108% with UACC-257 melanoma. Further, the growth with M14 melanoma is inactive: 114%.
As for `CCOc1ccc(N(CCCl)CCCl)cc1`, the growth was inactive: 68.4% in the assay with NCI-H23 lung; inactive: 75% in the assay with NCI-H226 lung; inactive: 99.9% in the assay on NCI-H322M lung; inactive: 73.7% with HOP-62 NSCLC; inactive: 22.6% in the assay with NCI-H460 lung; inactive: 55.8% in the assay on HOP-92 NSCLC. The growth with NCI-H522 lung is inactive: 57.3%; with A549/ATCC NSCLC, inactive: 51.4%; with 786-0 renal it was inactive: 52.8%; in the assay on COLO 205 colon it was inactive: 70.1%; in the assay with DU-145 prostate, inactive: 46.1%; in the assay with K-562 leukemia, inactive: 83.9%. The growth in the assay with MALME-3M melanoma is inactive: 72.5%; with MDA-MB-231 breast, inactive: 99.1%; in the assay with RXF 393 renal, inactive: 64.7%; in the assay with SF-268 CNS it was inactive: 43%; with SF-539 CNS it was inactive: 32.8%; in the assay with UACC-257 melanoma, inactive: 72.8%. Besides, in the assay on M14 melanoma, the growth is inactive: 69.1%.
With `COc1ccc(C(=O)O)cc1N(CCCl)CCCl`, the growth in the assay with NCI-H23 lung was inactive: 101%; in the assay on NCI-H226 lung, inactive: 99.5%; in the assay with NCI-H322M lung, inactive: 104%; with HOP-62 NSCLC, inactive: 104%; in the assay with NCI-H460 lung, inactive: 95.5%; with HOP-92 NSCLC it was inactive: 86.1%. Further, the growth in the assay on NCI-H522 lung is inactive: 77.1%; in the assay with A549/ATCC NSCLC it was inactive: 97.5%; with 786-0 renal, inactive: 94.9%; in the assay on COLO 205 colon, inactive: 111%; in the assay on DU-145 prostate, inactive: 112%; with K-562 leukemia it was inactive: 94.2%. The growth in the assay with MALME-3M melanoma is inactive: 92.8%; with MDA-MB-231 breast it was inactive: 118%; with RXF 393 renal it was inactive: 108%; with SF-268 CNS it was inactive: 88.6%; with SF-295 CNS it was inactive: 87.6%; with SF-539 CNS, inactive: 93.5%. Moreover, the growth was inactive: 108% with UACC-257 melanoma and inactive: 98.8% in the assay with M14 melanoma.
Consider `O=C(O)c1ccc(N(CCCl)CCCl)cc1`, for which the growth in the assay with NCI-H23 lung was inactive: 111%; in the assay with NCI-H226 lung it was inactive: 104%; with NCI-H322M lung it was inactive: 136%; in the assay on HOP-62 NSCLC, inactive: 107%; with NCI-H460 lung, inactive: 112%; in the assay with HOP-92 NSCLC it was inactive: 118%. The growth is inactive: 83.9% with NCI-H522 lung; inactive: 105% with A549/ATCC NSCLC; inactive: 115% with 786-0 renal; inactive: 121% in the assay with COLO 205 colon; inactive: 117% with DU-145 prostate; inactive: 96.5% with K-562 leukemia. Besides, the growth is inactive: 141% with MALME-3M melanoma; inactive: 120% with MDA-MB-231 breast; inactive: 118% in the assay with RXF 393 renal; inactive: 104% in the assay with SF-268 CNS; inactive: 117% in the assay on SF-295 CNS; inactive: 105% in the assay on SF-539 CNS. In addition, the figures for the growth in the assay on UACC-257 melanoma and in the assay with M14 melanoma were inactive: 108% and inactive: 113%, respectively.
For the compound `Cc1ccc(NC2(C(N)=O)CCN(Cc3ccccc3)CC2)cc1`, the growth with NCI-H23 lung was inactive: 95.6%; in the assay on NCI-H226 lung it was inactive: 94.6%; in the assay on NCI-H322M lung it was inactive: 99%; in the assay with HOP-62 NSCLC, inactive: 100%; in the assay on NCI-H460 lung it was inactive: 110%; with HOP-92 NSCLC it was inactive: 87.9%. The growth with NCI-H522 lung was inactive: 93.4%; with A549/ATCC NSCLC, inactive: 99.7%; in the assay on 786-0 renal, inactive: 101%; with COLO 205 colon it was inactive: 118%; in the assay with DU-145 prostate it was inactive: 117%; in the assay on K-562 leukemia it was inactive: 105%. For the same compound, the growth was inactive: 104% in the assay with MALME-3M melanoma; inactive: 102% in the assay with MDA-MB-231 breast; inactive: 102% with RXF 393 renal; inactive: 106% in the assay with SF-268 CNS; inactive: 97.3% in the assay on SF-295 CNS; inactive: 114% in the assay on SF-539 CNS. Also, the growth was inactive: 103% in the assay with UACC-257 melanoma and inactive: 105% in the assay on M14 melanoma.
As for `O=Cc1ccc(N(CCCl)CCCl)cc1Cl`, the growth in the assay on NCI-H23 lung was inactive: 69.8%; in the assay on NCI-H226 lung it was active: -63.8%; in the assay on NCI-H322M lung, inactive: 102%; in the assay on HOP-62 NSCLC, inactive: 60.7%; in the assay with NCI-H460 lung, active: 2.87%; with HOP-92 NSCLC, inactive: 63.3%. Moreover, the growth in the assay on NCI-H522 lung was inactive: 83.8%; in the assay with A549/ATCC NSCLC, inactive: 49.5%; in the assay with 786-0 renal it was inactive: 86.2%; with COLO 205 colon, inactive: 50.5%; in the assay on DU-145 prostate, inactive: 88.6%; in the assay on K-562 leukemia, inactive: 72.1%. The growth in the assay with MALME-3M melanoma is inactive: 100%; in the assay on MDA-MB-231 breast it was inactive: 104%; in the assay on RXF 393 renal, inactive: 63.7%; in the assay on SF-268 CNS, inactive: 97.2%; in the assay on SF-539 CNS it was inactive: 87.7%; in the assay with UACC-257 melanoma, active: -46.4%. Also, the growth in the assay on M14 melanoma was inactive: 102%.
Take `CCCSP(=O)(CCl)N(CCCl)CCCl` (configuration not stated): the growth with NCI-H23 lung was inactive: 102%; in the assay with NCI-H226 lung, inactive: 96.8%; in the assay on NCI-H322M lung it was inactive: 101%; in the assay with HOP-62 NSCLC, inactive: 113%; in the assay on NCI-H460 lung, inactive: 96.6%; with HOP-92 NSCLC it was inactive: 80.3%. Further, the growth in the assay on NCI-H522 lung was inactive: 74%; in the assay on A549/ATCC NSCLC, inactive: 95.8%; in the assay with 786-0 renal, inactive: 103%; with COLO 205 colon, inactive: 110%; with DU-145 prostate, inactive: 108%; with K-562 leukemia it was inactive: 104%. The growth was inactive: 106% in the assay with MALME-3M melanoma; inactive: 107% with MDA-MB-231 breast; inactive: 103% with RXF 393 renal; inactive: 105% in the assay with SF-268 CNS; inactive: 103% with SF-295 CNS; inactive: 90% in the assay on SF-539 CNS. Moreover, the growth with UACC-257 melanoma was inactive: 83%; with M14 melanoma it was inactive: 100%.
For the compound `ClCCN(CCCl)Cc1ccc2c(c1)OCO2`, the growth in the assay on NCI-H23 lung was inactive: 80.9%; in the assay on NCI-H226 lung it was inactive: 67.5%; with NCI-H322M lung, inactive: 108%; in the assay on HOP-62 NSCLC it was inactive: 66.8%; with NCI-H460 lung it was inactive: 56.4%; in the assay on HOP-92 NSCLC, inactive: 62.1%. The growth was inactive: 84.5% with NCI-H522 lung; inactive: 82.3% in the assay on A549/ATCC NSCLC; inactive: 96.2% with 786-0 renal; inactive: 87% with COLO 205 colon; inactive: 102% with DU-145 prostate; inactive: 89.4% in the assay with K-562 leukemia. The growth in the assay with MALME-3M melanoma is inactive: 100%; in the assay with MDA-MB-231 breast, inactive: 78.5%; in the assay with RXF 393 renal, inactive: 83.5%; with SF-268 CNS, inactive: 82.8%; with SF-295 CNS it was inactive: 98.2%; in the assay with SF-539 CNS it was inactive: 66.7%. Moreover, the growth in the assay with UACC-257 melanoma is inactive: 91.9%; in the assay on M14 melanoma, inactive: 89.2%.
